Sequences of proteins named here, by UniProt entry; tags and fusion partners are left off.
UniProt P04049, whole entry Y340E/Y341E: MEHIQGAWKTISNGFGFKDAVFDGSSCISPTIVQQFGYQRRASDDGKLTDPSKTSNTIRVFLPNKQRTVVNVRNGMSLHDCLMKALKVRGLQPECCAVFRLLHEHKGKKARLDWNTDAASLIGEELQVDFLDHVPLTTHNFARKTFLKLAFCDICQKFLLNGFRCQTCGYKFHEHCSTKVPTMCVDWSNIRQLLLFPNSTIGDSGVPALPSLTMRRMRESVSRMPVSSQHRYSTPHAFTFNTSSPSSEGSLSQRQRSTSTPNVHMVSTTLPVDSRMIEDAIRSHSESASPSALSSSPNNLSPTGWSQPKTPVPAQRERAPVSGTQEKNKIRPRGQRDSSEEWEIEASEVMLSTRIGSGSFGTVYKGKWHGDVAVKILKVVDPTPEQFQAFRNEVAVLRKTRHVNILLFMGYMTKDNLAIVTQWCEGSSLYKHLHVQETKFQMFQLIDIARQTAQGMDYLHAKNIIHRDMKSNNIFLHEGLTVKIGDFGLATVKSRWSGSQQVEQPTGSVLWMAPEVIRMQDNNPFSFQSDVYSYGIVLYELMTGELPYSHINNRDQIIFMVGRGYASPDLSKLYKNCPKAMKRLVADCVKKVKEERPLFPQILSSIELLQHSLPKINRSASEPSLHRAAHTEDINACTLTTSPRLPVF

According to US10245267B2 (dated 2019):

Target: C-Raf FL (full-length C-Raf protein) (Homo sapiens (Human), UniProt P04049, Y340E/Y341E)
Format: biochemical

IC50: 0.4 nM
Compound: Cc1ccc(NC(=O)c2ccnc(S(C)(=O)=O)c2)cc1-c1cc2[nH]cnc2c(N2CCOCC2)n1 [Example 821, N-(4-methyl-3-(4-morpholino-1H-imidazo[4,5-c]pyridin-6-yl)phenyl)-2-(methylsulfonyl)isonicotinamide]
